The values that follow come from patent publication EP0799188B1, “AMIDES OF MONO AND DICARBOXYLIC ACIDS WITH GLYCOSAMINES, SELECTIVELY ACTIVE ON THE CANNABINOID PERIPHERAL RECEPTOR” (LIFEGROUP S.p.A., priority 1994, dated 1996).

One test deals with T1, CB2 receptor (Rattus norvegicus, UniProt Q9QZN9).
T1 construct: 30 µg membrane proteins prepared in item a); endogenous in cells; host or cells: RBL-2H3 cells (plasma membrane preparation)
T1 sequence (Q9QZN9 1-360): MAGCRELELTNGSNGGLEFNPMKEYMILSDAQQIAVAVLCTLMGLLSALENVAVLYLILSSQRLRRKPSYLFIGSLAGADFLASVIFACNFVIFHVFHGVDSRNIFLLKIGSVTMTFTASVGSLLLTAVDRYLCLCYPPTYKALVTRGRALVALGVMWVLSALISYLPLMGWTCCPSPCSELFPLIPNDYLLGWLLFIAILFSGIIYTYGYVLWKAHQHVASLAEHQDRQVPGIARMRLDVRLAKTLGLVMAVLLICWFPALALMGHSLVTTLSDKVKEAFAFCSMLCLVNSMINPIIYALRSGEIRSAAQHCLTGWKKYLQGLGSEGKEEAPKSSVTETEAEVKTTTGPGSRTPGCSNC
Briefly: 3H-WIN 55,212-2 binding displacement on RBL-2H3 cell membranes. The following applies: IC50 (nM), 1% DMSO, means ± SEM.

For another test, the system named is RBL-2H3 cells. Briefly: 3H-serotonin release induced by ADNP/DNP.HSA immunogenic stimulation. The following applies: 25µM; 0.1% DMSO and 0.1% ethanol. The class given is cell-based, rat.

In the case of `CCCCC/C=C\C/C=C\C/C=C\C/C=C\CCCC(=O)NCCO` [Anandamide, arachidonylethanolamide, reference compound], the 50% inhibitory concentration (IC50) – broadly, the concentration at which inhibition is half-maximal – at CB2 receptor turned out to be 33 ± 29 nM.

As to `CCCCCc1cc(O)c2c(c1)OC(C)(C)C1CC=C(C)CC21` (centres unmarked) [Δ 8-THC, Δ8-tetrahydrocannabinol, reference compound], in the test on RBL-2H3 cells, the “3H-serotonin net release (%)” value was 0%.
